According to US20260217835A1 (published 2026):

Target: the molecule itself
Assay: co-expression of full-length heavy chain, light chain and Fc fragment in Expi293F, Protein G purification, SEC peak area ratio

B1: IgG4 Fc fragment without modification (SEQ ID NO: 102) (other)
chain: ESKYGPPCPPCPAPEFLGGPSVFLFPPKPKDTLMISRTPEVTCVVVDVSQEDPEVQFNWYVDGVEVHNAKTKPREEQFNSTYRVVSVLTVLHQDWLNGKEYKCKVSNKGLPSSIEKTISKAKGQPREPQVYTLPPSQEEMTKNQVSLTCLVKGFYPSDIAVEWESNGQPENNYKTTPPVLDSDGSFFLYSRLTVDKSRWQEGNVFSCSVMHEALHNHYTQKSLSLSL
notes: Fc fragment co-expressed with a full-length heavy chain and the light chain; the associating unit is one Fc chain; also called WT-IgG4 Fc fragment
Homo Fc fragment (%): 27.3%
